# Measurements as given in US9765018B2, “IDO inhibitors” (BRISTOL-MYERS SQUIBB COMPANY, priority 2013, dated 2017).
# By UniProt entry, the sequences of proteins in these tests, tags left out.
# UniProt P14902, whole entry: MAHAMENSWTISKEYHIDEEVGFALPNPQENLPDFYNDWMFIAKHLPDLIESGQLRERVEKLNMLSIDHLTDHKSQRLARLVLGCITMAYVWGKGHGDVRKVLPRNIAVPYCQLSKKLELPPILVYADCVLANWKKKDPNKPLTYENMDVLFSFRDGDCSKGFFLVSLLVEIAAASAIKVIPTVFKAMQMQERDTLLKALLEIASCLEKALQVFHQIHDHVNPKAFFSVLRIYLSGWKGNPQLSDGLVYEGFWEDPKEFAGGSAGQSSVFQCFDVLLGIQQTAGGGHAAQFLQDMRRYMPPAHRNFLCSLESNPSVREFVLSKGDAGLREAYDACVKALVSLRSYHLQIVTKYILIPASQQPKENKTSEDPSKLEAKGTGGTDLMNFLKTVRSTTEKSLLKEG
# Molecular target: IDO (Homo sapiens (Human), UniProt P14902)
# Assay: LLE_IDO_ABS_DR (IDO assay, method not described)
# Settings: read-out: LLE_IDO_ABS_DR (IC50)
row,Structure (SMILES),IC50
1,Cc1ccc(NC(=O)Nc2cc(-c3ccccc3-c3nnn[nH]3)cc(C/C=C/C(F)(F)F)c2OCCC(F)(F)F)cc1,650 nM
2,O=C(Nc1ccccc1F)Nc1cc(-c2ccccc2-c2nnn[nH]2)cc(C/C=C/C(F)(F)F)c1OCCC(F)(F)F,140 nM
